Patent US20150307520A1, “NOVEL HETEROARYL AND HETEROCYCLE COMPOUNDS, COMPOSITIONS AND METHODS THEREOF” (HUTCHISON MEDIPHARMA LIMITED, priority 2012, published 2015)

Chains of the proteins cited; added tags and fusions are not shown. Lines headed by an entry give the natural chain unless they say otherwise; changes in a name come on top. Residues count along the entry.
UniProt O00329, whole entry: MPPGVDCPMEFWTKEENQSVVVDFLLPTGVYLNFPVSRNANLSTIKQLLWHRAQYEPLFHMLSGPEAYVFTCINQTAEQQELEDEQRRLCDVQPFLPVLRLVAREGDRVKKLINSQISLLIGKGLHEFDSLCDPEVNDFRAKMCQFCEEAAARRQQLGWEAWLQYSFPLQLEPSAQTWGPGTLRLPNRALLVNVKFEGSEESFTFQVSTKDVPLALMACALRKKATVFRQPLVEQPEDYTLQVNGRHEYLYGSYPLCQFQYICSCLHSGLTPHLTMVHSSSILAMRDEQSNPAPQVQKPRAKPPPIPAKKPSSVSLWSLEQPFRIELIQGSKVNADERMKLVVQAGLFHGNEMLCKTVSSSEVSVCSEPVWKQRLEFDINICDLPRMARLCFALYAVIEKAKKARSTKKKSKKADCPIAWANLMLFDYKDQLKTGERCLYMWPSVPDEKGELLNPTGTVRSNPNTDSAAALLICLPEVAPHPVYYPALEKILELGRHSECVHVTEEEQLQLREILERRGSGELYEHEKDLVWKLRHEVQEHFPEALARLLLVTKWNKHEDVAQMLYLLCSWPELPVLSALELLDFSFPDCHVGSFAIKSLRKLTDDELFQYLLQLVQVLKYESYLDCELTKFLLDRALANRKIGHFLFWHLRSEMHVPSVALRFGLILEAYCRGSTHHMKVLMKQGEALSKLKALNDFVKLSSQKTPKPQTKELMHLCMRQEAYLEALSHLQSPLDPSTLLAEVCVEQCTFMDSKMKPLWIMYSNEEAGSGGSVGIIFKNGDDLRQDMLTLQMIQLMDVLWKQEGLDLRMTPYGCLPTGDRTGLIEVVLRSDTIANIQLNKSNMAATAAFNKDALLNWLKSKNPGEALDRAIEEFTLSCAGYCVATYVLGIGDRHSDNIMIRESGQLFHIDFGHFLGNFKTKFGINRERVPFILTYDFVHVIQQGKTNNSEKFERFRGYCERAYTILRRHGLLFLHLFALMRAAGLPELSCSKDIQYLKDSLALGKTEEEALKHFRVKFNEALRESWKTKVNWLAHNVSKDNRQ
UniProt Q9JHG7, whole entry: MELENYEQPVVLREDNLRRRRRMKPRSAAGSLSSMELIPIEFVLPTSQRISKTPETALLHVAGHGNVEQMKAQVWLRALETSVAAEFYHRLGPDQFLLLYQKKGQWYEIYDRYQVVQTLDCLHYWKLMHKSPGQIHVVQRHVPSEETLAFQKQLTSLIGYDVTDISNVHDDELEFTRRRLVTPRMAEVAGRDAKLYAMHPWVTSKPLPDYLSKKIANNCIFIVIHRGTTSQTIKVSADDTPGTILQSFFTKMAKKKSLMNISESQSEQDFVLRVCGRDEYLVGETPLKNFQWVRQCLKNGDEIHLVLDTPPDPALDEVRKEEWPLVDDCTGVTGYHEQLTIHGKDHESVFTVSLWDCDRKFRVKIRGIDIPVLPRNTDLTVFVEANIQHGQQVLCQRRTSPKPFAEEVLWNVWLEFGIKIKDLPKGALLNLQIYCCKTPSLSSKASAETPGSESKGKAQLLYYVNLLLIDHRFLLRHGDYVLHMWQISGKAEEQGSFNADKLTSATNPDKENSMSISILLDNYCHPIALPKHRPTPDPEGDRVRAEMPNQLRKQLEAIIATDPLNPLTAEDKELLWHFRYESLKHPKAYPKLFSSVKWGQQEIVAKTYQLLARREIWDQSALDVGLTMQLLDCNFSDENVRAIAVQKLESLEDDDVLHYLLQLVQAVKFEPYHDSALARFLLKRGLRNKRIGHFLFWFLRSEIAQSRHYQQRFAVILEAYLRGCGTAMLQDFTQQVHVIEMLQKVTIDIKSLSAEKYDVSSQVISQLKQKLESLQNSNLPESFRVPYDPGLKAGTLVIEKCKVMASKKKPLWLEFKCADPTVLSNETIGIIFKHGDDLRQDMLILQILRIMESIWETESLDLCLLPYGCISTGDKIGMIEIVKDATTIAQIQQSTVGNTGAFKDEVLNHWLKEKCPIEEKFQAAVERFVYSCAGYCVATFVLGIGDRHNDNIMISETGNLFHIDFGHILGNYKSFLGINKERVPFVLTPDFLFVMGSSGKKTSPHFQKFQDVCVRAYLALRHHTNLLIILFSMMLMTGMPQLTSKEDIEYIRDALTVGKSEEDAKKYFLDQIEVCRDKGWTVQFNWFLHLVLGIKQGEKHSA
UniProt P42338, whole entry: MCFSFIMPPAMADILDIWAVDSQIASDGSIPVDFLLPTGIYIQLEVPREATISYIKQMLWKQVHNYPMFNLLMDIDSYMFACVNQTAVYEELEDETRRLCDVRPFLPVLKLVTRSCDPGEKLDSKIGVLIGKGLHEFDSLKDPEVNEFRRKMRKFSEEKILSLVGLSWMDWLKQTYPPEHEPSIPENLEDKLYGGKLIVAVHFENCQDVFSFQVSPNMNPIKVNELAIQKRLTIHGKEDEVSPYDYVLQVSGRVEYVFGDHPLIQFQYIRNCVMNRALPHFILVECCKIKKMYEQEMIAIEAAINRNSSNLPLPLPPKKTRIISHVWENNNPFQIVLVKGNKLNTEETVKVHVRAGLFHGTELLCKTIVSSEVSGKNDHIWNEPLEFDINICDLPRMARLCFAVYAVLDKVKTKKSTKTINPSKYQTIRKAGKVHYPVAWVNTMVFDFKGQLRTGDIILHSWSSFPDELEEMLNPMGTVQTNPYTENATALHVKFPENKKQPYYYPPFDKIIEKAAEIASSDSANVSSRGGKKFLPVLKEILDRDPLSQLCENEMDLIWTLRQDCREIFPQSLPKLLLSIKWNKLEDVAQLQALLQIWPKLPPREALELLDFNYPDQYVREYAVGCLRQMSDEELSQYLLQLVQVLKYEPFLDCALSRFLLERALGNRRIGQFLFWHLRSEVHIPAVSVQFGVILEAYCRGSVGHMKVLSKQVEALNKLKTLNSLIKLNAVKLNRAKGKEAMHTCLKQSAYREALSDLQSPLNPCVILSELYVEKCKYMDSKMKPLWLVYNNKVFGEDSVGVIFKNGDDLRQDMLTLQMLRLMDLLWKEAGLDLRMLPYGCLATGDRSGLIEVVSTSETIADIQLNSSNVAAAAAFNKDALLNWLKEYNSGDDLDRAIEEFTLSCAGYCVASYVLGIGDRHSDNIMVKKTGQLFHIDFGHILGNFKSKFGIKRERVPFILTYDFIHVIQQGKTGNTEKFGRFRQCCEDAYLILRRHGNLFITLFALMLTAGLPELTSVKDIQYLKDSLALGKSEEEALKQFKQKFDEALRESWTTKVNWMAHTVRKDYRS
UniProt P27986, whole entry partner: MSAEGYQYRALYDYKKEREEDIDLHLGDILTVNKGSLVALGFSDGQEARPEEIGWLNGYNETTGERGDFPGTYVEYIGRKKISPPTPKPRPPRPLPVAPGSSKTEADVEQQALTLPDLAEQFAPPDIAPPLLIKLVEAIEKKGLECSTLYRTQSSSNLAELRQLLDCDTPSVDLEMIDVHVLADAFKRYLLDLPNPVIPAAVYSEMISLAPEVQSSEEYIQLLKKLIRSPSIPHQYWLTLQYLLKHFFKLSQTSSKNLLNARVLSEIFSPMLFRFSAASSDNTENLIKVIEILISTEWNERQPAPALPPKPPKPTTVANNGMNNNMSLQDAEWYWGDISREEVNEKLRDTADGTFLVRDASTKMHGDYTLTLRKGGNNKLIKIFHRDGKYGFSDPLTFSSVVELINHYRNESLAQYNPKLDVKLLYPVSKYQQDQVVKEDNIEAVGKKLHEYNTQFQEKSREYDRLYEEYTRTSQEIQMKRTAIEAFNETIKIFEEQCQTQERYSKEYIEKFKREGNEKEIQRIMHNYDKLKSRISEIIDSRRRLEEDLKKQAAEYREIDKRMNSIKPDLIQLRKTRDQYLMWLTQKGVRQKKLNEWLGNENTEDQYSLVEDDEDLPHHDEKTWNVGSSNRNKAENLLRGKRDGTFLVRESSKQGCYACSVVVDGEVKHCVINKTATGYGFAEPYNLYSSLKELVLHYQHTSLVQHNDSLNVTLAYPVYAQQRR
UniProt P27986, 2-724 partner limits assumed: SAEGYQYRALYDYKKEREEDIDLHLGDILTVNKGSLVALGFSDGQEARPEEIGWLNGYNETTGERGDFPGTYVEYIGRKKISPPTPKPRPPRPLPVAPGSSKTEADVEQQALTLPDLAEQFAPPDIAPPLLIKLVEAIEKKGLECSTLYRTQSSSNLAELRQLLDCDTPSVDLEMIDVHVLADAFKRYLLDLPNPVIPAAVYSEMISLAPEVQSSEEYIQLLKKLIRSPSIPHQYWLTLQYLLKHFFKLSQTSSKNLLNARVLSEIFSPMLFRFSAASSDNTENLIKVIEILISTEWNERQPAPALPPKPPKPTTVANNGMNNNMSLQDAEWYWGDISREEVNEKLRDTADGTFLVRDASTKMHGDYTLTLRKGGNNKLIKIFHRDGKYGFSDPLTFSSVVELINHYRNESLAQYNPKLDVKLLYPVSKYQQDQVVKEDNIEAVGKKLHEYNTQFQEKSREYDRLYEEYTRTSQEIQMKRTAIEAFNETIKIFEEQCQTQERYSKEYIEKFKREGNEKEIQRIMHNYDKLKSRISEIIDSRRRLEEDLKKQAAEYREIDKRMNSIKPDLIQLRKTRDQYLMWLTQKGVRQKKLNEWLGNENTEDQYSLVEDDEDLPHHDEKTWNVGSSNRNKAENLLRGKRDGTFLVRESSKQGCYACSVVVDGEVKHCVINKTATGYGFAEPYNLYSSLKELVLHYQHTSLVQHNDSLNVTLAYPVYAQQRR

How the values were obtained:
p110δ/p85α = p110δ/p85α (Homo sapiens, UniProt O00329); test: Transcreener KINASE Assay, kinase inhibition of p110δ/p85α; type: biochemical; settings: 1 uM test compound
PI3Kγ = PI3Kγ (Mus musculus, UniProt Q9JHG7); test: Acumen Assay - Raw264.7 p-AKT Assay (C5a stimulated); type: cell-based; settings: read-out: PI3Kγ cell-C5a Raw264.7 IC50; Raw264.7 macrophage cells, compound 30 min, stimulated with 10 nM C5a for 5 min, p-AKT (Ser473) readout
p110β/p85α = p110β/p85α (Homo sapiens, UniProt P42338); test: Transcreener KINASE Assay, kinase inhibition of p110β/p85α; settings: 1 uM test compound

PI3Kδ IH % @ 1 uM (p110δ/p85α): >100%
IC50 (PI3Kγ): 18 nM
PI3Kβ IH % @ 1 uM (p110β/p85α): 65.1%
SMILES: C[C@H]1CN(c2nc(N)nc3c2C(=O)CCN3)[C@@H]1c1nn2ccc(Cl)c2c(=O)n1-c1ccccc1
